The values that follow come from ChEMBL document CHEMBL3886333, “Buprenorphine analogs” (2015).

For experiment [1], the target named is T1, Mu-type opioid receptor (Homo sapiens, UniProt P35372). The experiment is described as follows: GTPgammaS Functional Assay (U-2): [35S]GTPgammaS functional assays were conducted using freshly thawed pt-receptor membranes prepared in-house from a cell line expressing recombinant mu opioid receptor in a U-2 OS cell background, or purchased from a commercial source (Perkin Elmer, Shelton, Conn.; or DiscovRx, Fremont, Calif.). Assay reactions were prepared by sequentially adding the following re. (In general: GTPγS resists hydrolysis and so accumulates on activated G proteins.)

In experiment [2] the target is T1, Mu-type opioid receptor. The experiment in a line: Radioligand Dose-Displacement Binding Assays (mu): Radioligand dose-displacement binding assays for mu-opioid receptors used 0.3 nM [3H]-diprenorphine (Perkin Elmer, Shelton, Conn.), with […] membrane protein/well in a final volume of 500 ul binding buffer (10 mM MgCl2,1 mM EDTA, 5% DMSO, 50 mM HEPES, pH 7.4). Reactions were carried out in the absence or presence of increasing concentrations of u.

The target of experiment [3] is T1, Mu-type opioid receptor. The experiment in a line: GTPgammaS Functional Assay (mu): [35S]GTPgammaS functional assays were conducted using freshly thawed pt-receptor membranes prepared in-house from a cell line expressing recombinant mu opioid receptor in a HEK-293, CHO cell background, or purchased from a commercial source (Perkin Elmer, Shelton, Conn.; or DiscovRx, Fremont, Calif.). Assay reactions were prepared by sequentially adding the followi.

Experiment [4] concerns the target T2, Kappa-type opioid receptor (Homo sapiens, UniProt P41145). The experiment is described as follows: Radioligand Dose-Displacement Binding Assays (kappa): Membranes from recombinant HEK-293 cells expressing the human κ opioid receptor (cloned in house) were prepared by lysing cells in ice cold hypotonic buffer (2.5 mM MgCl2,50 mM HEPES, pH 7.4) (10 mL/10 cm dish) followed by homogenization with a tissue grinder/Teflon pestle. Membranes were collected by centrifugation at 30,000×g for 15 min at 4°. Particulars: sf9.

For experiment [5], the target named is T2, Kappa-type opioid receptor. The experiment is described as follows: GTPgammaS Functional Assay (kappa): Membranes from recombinant HEK-293 cells, CHO cells expressing the recombinant human kappa opioid receptor (kappa) were prepared by lysing cells in ice cold hypotonic buffer (2.5 mM MgCl2, 50 mM HEPES, pH 7.4) (10 mL/10 cm dish) followed by homogenization with a tissue grinder/Teflon pestle. Functional [35S]GTPgammaS binding assays were conducted as follows. kap.

Experiment [6] addresses T2, Kappa-type opioid receptor. The experiment is described as follows: GTPgammaS Functional Assay: Membranes from recombinant U-2 OS cells expressing the recombinant human kappa opioid receptor (kappa) were prepared by lysing cells in ice cold hypotonic buffer (2.5 mM MgCl2, 50 mM HEPES, pH 7.4) (10 mL/10 cm dish) followed by homogenization with a tissue grinder/Teflon pestle. Functional [35S]GTPgammaS binding assays were conducted as follows. kappa opioid receptor m.

One may read the EC50 as the concentration giving half of the maximal effect. One may read the Ki as a measure of affinity in units of concentration, obtained from inhibition or displacement. Turning to `COc1ccc2c3c1O[C@H]1[C@@]4(OC)CC[C@@]5(C[C@@H]4C(NC(C)C(N)=O)c4ccccc4)[C@@H](C2)N(CC2CC2)CC[C@]315` (stereo not given in full), the half-maximal effective concentration (EC50) on Mu-type opioid receptor [1] was 53 nM; at Mu-type opioid receptor [3] it was 457 nM; in experiment [5], 289 nM. Besides, the inhibition constant (Ki) is 77 nM on Mu-type opioid receptor [2] and 40.1 nM in experiment [4].
For the compound `COc1ccc2c3c1O[C@H]1[C@@]4(OC)CC[C@@]5(C[C@@H]4C(N[C@H](C(N)=O)c4ccccc4)c4ccccc4)[C@@H](C2)N(CC2CC2)CC[C@]315` (stereo not given in full), the EC50 on Mu-type opioid receptor [3] was determined as 4980 nM.
With `COc1ccc2c3c1O[C@H]1[C@@]4(OC)CC[C@@]5(C[C@@H]4C(NCC(=O)O)c4ccccc4)[C@@H](C2)N(CC2CC2)CC[C@]315` (stereo not given in full), the EC50 was 174 nM on Mu-type opioid receptor [3] and 745 nM in experiment [5].
Take `COc1ccc2c3c1O[C@H]1[C@@]4(OC)CC[C@@]5(C[C@@H]4C(NC(C(=O)O)c4ccccc4)c4ccccc4)[C@@H](C2)N(CC2CC2)CC[C@]315` (stereo not given in full): the results for the concentration for a half-maximal effect (EC50) (on Mu-type opioid receptor [3]; in experiment [5]) were 656 nM and 1770 nM, respectively. In addition, the inhibition constant (Ki) in experiment [4] came to 51.3 nM.
On to `COc1ccc2c3c1O[C@H]1[C@@]4(OC)CC[C@@]5(C[C@@H]4C(N[C@@H](C(N)=O)c4ccccc4)c4ccccc4)[C@@H](C2)N(CC2CC2)CC[C@]315` (stereo not given in full), for which the 50% effective concentration (EC50) is 15000 nM on Mu-type opioid receptor [3] and 771 nM in experiment [5]. For the same compound, the Ki in experiment [4] is 21.8 nM.
For `COc1ccc2c3c1O[C@H]1[C@@]4(OC)CC[C@@]5(C[C@@H]4[C@](O)(CC(O)CO)c4ccccc4)[C@@H](C2)N(CC2CC2)CC[C@]315` (stereo not given in full), in experiment [5], the EC50 is 122 nM.
For `COc1ccc2c3c1O[C@H]1[C@@]4(OC)CC[C@@]5(C[C@@H]4C(NC(C)C(=O)O)c4ccccc4)[C@@H](C2)N(CC2CC2)CC[C@]315` (stereo not given in full), the EC50 on Mu-type opioid receptor [1] amounted to 172 nM; at Mu-type opioid receptor [3], 379 nM; in experiment [6], 399 nM; in experiment [5], 1640 nM. Moreover, the Ki in experiment [4] came to 138 nM.
